Laboratory results taken from patent US5270344A, “Method of treating a systemic disorder using trioxolane and diperoxide compounds” (priority 1992, dated 1993).

Tests used:
[1] = Primary skin irritation test; settings: 1.0% in isopropyl myristate, 0.5 ml per site, 24 h patch, intact and abraded skin, read 24 and 72 hours
[2] = system: human spermatozoa; test: Effect on human spermatozoa; assay type: cell-based; settings: dilutions of less than 1:2×10^10 of the working concentrations
[3] = system: lymphocytes; test: Immunomodulatory activity (bone marrow examination); assay type: in vivo, Balb/c mice; settings: compared to mice without any drug
[4] = Physical properties (viscosity, stability); settings: compared with trioxolane derivative of cis 3-hexene-1-ol
[5] = system: Myeloma cell line (×63 balb/c line); test: Effect on myeloma cell line; assay type: cell-based, balb/c (mouse); settings: dilutions of less than 1:2×10^10 of the working concentrations
[6] = Tolerability of mice (intraperitoneal); assay type: in vivo; settings: IP, 20 g balb/c mice

| Substance | Primary Irritation Index (PII) [1] | Time to kill human spermatozoa [2] | New clones of lymphocytes in bone marrow [3] | Stability (comparison) [4] | Viscosity (comparison) [4] | Time to kill myeloma cell line [5] | Minimum lethal dose [6] |
| --- | --- | --- | --- | --- | --- | --- | --- |
| linalool trioxolane | 1.0 | – | – | – | – | – | – |
| Geraniol trioxolane | – | ≤ 1 min | increase in new clones of lymphocytes | less stable | more viscous | ≤ 48 h | 3000 mg/kg |
